For this test, the target named is 5-hydroxytryptamine receptor 2A (Homo sapiens, UniProt P28223). The test is described as follows: Displacement of [3H]Ketanserin from human recombinant 5HT2A receptor incubated for […] by microbeta scintillation counting method. On the technique in general: In a radioligand displacement assay an active substance lowers the binding of a labelled ligand.

By UniProt entry, the sequences of proteins in these tests, tags left out.
UniProt P28223, whole entry: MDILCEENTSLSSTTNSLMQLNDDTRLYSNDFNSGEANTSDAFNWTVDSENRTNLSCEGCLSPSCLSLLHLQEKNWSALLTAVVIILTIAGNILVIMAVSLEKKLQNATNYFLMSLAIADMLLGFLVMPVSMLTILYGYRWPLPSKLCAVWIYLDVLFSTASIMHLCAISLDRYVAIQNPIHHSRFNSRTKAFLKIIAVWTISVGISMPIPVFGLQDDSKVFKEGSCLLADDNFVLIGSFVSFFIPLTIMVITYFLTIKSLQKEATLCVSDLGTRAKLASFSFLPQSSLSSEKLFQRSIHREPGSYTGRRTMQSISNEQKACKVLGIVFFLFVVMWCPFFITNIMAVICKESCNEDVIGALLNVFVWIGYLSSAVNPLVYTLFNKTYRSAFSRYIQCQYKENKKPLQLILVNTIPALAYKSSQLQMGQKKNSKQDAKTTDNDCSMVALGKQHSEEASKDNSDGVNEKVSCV

Each structure is given as a SMILES string.

`O=C1NCN(c2ccccc2)C12CCN(CCCCc1nc3cc(Cl)ccc3s1)CC2`: the Ki came to 1120 nM. For `O=C1NCN(c2ccccc2)C12CCN(CCCCc1c[nH]c3ccccc13)CC2` the value was 982 nM.

Usually Ki stands for the equilibrium dissociation constant of an inhibitor or competing ligand from its target.

These data come from ChEMBL document CHEMBL3817845, “Development of CNS multi-receptor ligands: Modification of known D2 pharmacophores” (Bioorg Med Chem, 2016).
